Experimental data: patent publication EP3996708B1, “PHARMACEUTICAL COMPOSITIONS COMPRISING INHIBITORS OF OPA1 FOR USE IN THE TREATMENT OF CANCER” (priority 2019, dated 2021)

System: MDA-MB-231 cells
Assay: Scratch wound migration assay
Assay type: cell-based, human
Conditions: 20 µM MYLS22, 6 hours; compared with around 50% reduction by siRNA silencing of OPA1
Description: Scratch wound migration assay: HUVEC and MDA cells were cultured in 48-well plates in 800 µl of EGM2 for 48 hours and were wounded with the head of 200 µl tips.
MDA-MB-231 cells, a human metastatic breast adenocarcinoma cell line were used for measuring if MYLS22 could block MDA-MB-231 migration, an essential feature of cancer metastatization that in these cells is controlled by mitochondrial morphology (Zhao, J., Zhang, J., Yu, M., Xie, Y., Huang, Y., Wolff, D.W., Abel, P.W., and Tu, Y. (2012). Mitochondrial dynamics regulates migration and invasion of breast cancer cells. Oncogene 32, 4814). When OPA1 was blocked genetically, by efficient siRNA-mediated silencing of OPA1 migration was reduced by around 50% in a classic scratch assay.

For `Cc1nn(-c2ccccc2)c2sc(C(=O)Nc3c(C)n(C)n(-c4ccccc4)c3=O)cc12` [MYLS22, N-(1,5-dimethyl-3-oxo-2-phenyl-2,3-dihydro-1H-pyrazol-4-YL) 3-methyl-1-phenyl-1H-thieno[2,3-c]pyrazole-5-carboxamide], the “inhibition of cell migration” value was “very similar inhibition”.
